{"sequences": {"note": "Sequences of proteins named here, by UniProt entry; tags and fusion partners are left off.", "UniProt P31645, whole entry": "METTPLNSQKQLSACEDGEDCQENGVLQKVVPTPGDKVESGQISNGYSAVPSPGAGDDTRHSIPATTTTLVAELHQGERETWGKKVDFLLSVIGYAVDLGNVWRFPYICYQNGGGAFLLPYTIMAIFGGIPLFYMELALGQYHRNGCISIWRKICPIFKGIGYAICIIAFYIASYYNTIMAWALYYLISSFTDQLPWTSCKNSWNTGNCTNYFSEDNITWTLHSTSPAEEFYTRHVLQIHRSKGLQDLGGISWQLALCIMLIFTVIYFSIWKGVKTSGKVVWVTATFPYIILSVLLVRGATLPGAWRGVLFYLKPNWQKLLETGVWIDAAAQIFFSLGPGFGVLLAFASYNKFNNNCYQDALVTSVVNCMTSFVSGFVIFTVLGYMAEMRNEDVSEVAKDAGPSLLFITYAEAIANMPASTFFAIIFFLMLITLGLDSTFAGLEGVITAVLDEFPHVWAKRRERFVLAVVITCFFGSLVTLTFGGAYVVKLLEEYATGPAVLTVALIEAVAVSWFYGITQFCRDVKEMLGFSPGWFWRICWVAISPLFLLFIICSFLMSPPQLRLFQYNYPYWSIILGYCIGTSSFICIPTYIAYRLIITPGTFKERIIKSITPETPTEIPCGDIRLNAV"}, "source": "patent EP2682119A1", "about": "“Aromatic N-heterocycle derivatives for use as medicine” (Université Libre de Bruxelles, priority 2012, dated 2014)", "target": "human 5-HT transporter (hSERT) (Homo sapiens, UniProt P31645)", "experiment": "5-HT reuptake inhibition, [3H]5-HT uptake in transfected HEK-293 MSR cells", "conditions": "read-out: Serotonin Ki", "experimental": "Assesment of 5-HT reuptake inhibition.\nInhibition assessment of 5-HT reuptake was performed as follows. The mammalian expression plasmid pcDNA3.1 containing human 5-HT transporter (hSERT) cDNA has been described previously. HEK-293 MSR cells (Invitrogen) were cultured as monolayers in Dulbecco's modified Eagle's medium (BioWhitaker) supplemented with 10% fetal calf serum (Invitrogen), 100 units/mL penicillin, 100 µg/mL streptomycin (BioWhitaker) and 6 µg/mL Geneticin (Invitrogen) at 95% humidity, 5% p(CO2) and 37°C. Cells were detached from the culture flasks by Versene (Invitrogen) and trypsin/EDTA (BioWhitaker) treatment for subculturing or seeding into white TC-microtiter plates (Nunc). Transfection and measurement of [^3H]5-HT (PerkinElmer Life Sciences) uptake was performed as described by Larsen et al. (2004) except that HEK-293 MSR cells (Invitrogen) were used instead of COS-1 cells.", "data": [{"smiles": "NCCc1c[nH]c2ccc(F)cc12", "values": [{"measurement": "Ki", "value": "10 to 20", "unit": "nM"}]}]}
